This note sets out measurements from ChEMBL document CHEMBL1152560, “Substituted 2-arylbenzothiazoles as kinase inhibitors: hit-to-lead optimization” (Bioorg Med Chem, 2009).

The chains behind the UniProt entries cited, without tags or fusion partners.
UniProt P00533, whole entry: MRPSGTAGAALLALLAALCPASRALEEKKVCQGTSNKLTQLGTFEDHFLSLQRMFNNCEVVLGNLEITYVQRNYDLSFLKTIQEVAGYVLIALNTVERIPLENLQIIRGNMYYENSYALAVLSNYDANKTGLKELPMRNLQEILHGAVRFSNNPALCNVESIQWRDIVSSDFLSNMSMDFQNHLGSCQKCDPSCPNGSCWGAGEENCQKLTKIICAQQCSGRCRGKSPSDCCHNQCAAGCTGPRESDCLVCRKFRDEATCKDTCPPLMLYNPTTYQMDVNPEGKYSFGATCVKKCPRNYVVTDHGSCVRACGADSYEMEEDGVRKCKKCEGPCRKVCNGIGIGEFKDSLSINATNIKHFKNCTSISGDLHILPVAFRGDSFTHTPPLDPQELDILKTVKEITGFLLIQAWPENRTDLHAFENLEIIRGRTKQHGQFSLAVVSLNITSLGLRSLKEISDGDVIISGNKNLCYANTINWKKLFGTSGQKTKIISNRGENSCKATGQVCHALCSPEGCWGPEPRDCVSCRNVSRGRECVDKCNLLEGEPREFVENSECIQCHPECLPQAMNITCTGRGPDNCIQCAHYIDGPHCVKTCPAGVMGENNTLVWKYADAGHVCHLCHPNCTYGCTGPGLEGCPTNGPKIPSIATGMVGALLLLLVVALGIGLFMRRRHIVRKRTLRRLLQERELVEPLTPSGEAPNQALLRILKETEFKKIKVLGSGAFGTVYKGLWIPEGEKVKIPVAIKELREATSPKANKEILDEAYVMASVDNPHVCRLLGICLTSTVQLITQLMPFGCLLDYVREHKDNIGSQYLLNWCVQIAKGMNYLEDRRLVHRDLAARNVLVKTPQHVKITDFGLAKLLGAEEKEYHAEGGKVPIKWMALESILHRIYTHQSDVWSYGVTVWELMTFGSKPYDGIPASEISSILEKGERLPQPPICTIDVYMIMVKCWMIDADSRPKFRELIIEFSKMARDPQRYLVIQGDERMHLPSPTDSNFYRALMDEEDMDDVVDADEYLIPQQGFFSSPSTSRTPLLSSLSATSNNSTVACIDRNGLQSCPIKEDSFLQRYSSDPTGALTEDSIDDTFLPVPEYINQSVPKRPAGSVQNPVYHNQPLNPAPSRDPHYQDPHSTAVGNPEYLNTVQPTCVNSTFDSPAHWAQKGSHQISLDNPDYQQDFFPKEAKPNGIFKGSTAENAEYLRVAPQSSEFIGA

SMILES strings stand for the structures.

The experiment concerns the target Epidermal growth factor receptor (Homo sapiens, UniProt P00533). The experiment is described as follows: Inhibition of wild type EGF-R by microplate scintillation counting.

Regarding `COc1cc2ncnc(Nc3ccc(-c4nc5ccccc5s4)cc3)c2cc1OCCCN1CCN(C)CC1`, the IC50 amounted to 670 nM. Turning to `COc1cc2c(Nc3ccc(-c4nc5ccccc5s4)cc3C)ncnc2cc1OCCCN1CCN(C)CC1`, the IC50 amounted to 250 nM.

The IC50 is the midpoint of a concentration-inhibition curve. Low readings indicate greater potency, high ones weaker potency.
